Test results reported in PubChem BioAssay AID1898 (National Center for Advancing Translational Sciences (NCATS), 2009).
Several values for one entry are separate records, joined by “and”; a condition that tells them apart may be missing. Equal values may be shown once. The list shows a part of the results, in another mix than the full data. Inconclusive results are not listed. Activity calls are given as the source filed them. The call rests on the fitted dose curve; in most records, active means well fitted curve in the direction sought with a large enough effect; inconclusive means small, poorly fitted or top-dose-only effect, or another doubt; inactive means no such curve, though single readings can be large or run the other way.

Experiment: Secondary assay for Activators of Human Pyruvate Kinase M2 isoform - Cell Titer Glo cytotoxicity assay; further: % of control where 0% means no effect
Conditions: HeLa viability, CellTiter-Glo ATP luminescence, 24 h; at 57.5 µM (top of the series)
Protocol: NIH Chemical Genomics Center [NCGC] Matthew G. Vander Heiden, M.D., Ph.D. [Harvard Medical School, 77 Avenue Louis Pasteur, Boston, MA 02115] MLPCN Grant: 1 R03 MH085679-01 NCGC Assay Overview: We have identified a series of activators of the M2 isoform of human pyruvate kinase. The assay described here examines the cytotoxicity of these compounds by measuring the total ATP content of Hela cells after 24 hrs of exposure to compound.
Assay Protocol: 500 Hela cells/ 4ul in media (DMEM with high glucose, 10% FBS, 1x Pen Strep, 1x NEAA) were dispensed into a white solid 1536-microwell plate with a Thermo Multidrop. The plates were incubated at 37 degrees Celsius for 24 hours. The cells were then treated with compounds using the Kalypsys pin tool, delivering 23 nl of test compounds and the control doxorubicin. The plates were then incubated for an additional 24 hours at 37 degrees C after which 4 ul of Promega Cell-Titer Glo was dispensed using the Thermo Multidrop. The plates were incubated at room temperature for 10 min before reading luminescence on the Perkin Elmer ViewLux with images collected with 2x binning and a 5 sec exposure time.

Row | Compound | activity change, negative = cytotoxicity
1 | Cc1cc2c(s1)c1cnn(Cc3ccccc3F)c(=O)c1n2C | inactive: -0.0153% and inactive: 8.38% and inactive: -24%
